One data set is described as follows: TGA of bupropion salts. Format: physicochemical. On the procedure: 2-5 mg of each salt was placed in an aluminium pan and covered with its lid. DSC was run for each sample at the rate of 10 degrees C./min (for HBr salt, different rates were used to investigate for polymorphs) from 30 degrees C. to 400 degrees C. TGA was also used for each of the HBr, HCl, maleate and tosylate salts.
The salts were analyzed by DSC (at 10° C./min from 30° C. up to 400° C.) and the pH (aq. 0.5%), and the moisture content by KF were also measured. The TGA was performed on the HCl, maleate, tosylate and HBr salts.

For data set [1] the following is noted: cited from earlier work.
Setting [2] is: Polyethylene Glycol Alkyl Ethers (Table 92).
[3] abbreviates: PEG-Sorbitan Fatty Acid Esters (Table 91).
Where [4] appears, read: Polyethylene Glycol Alkyl Phenol Surfactants (Table 94).

Read-outs that look alike come from different tables or passages of the source. Bounds are passed on as bounds.

Turning to Bupropion tosylate, in the data set “TGA of bupropion salts”, the “thermal stability by TGA” value is on record as “not thermally stable”. “Lactic acid esters of mono, diglycerides”: in data set [1] (Mono- and Diglyceride Surfactants (Table 89)), the HLB is below 10. Take PEG-2 cetyl ether: the HLB in data set [1] (setting [2]) is recorded as 5.3. With PEG-2 stearyl ether, the HLB in data set [1] (setting [2]) is listed as 4.9. Turning to PEG-4 sorbitan monostearate, in data set [1] (setting [3]), the HLB is reported as 9.6. With PEG-6 sorbitan monolaurate, the HLB in data set [1] (setting [3]) is listed as 16. As to PEG-6 sorbitan tetraoleate, the HLB in data set [1] (setting [3]) is given as 8.5. As to PEG-10 sorbitan laurate, the HLB in data set [1] (setting [3]) was above 10.

Turning to PEG-10-100 nonyl phenol, the HLB in data set [1] (setting [4]) is above 10. As for PEG-15-100 octyl phenol ether, in data set [1] (setting [4]), the HLB is on record as above 10. Take PEG-20 cetyl ether: in data set [1] (setting [2]), the HLB is 16. Consider PEG-20 sorbitan monopalmitate, for which the HLB in data set [1] (setting [3]) is on record as 16. Consider PEG-20 sorbitan trioleate, for which, in data set [1] (setting [3]), the HLB is recorded as 11. With PEG-20 sorbitan tristearate, the HLB in data set [1] (setting [3]) was 11. Turning to PEG-40 sorbitan oleate, in data set [1] (setting [3]), the HLB is given as 18.

The values above are taken from patent US7645802B2 (Biovail Laboratories International SRL., priority 2005, dated 2010).
